# Like-named read-outs stand apart in the source and are kept apart here.
# Columns and labels:
# [1] = cited from earlier work
# [2] = Dielectric properties by open-ended coaxial measurement; type: physicochemical
# From the text: Materials or formulations with a high dipole moment as potential thermal accelerants can be expressed by the ε″ and σ values for thermal ablation (radiofrequency, microwave, irreversible electroporation. A person skilled in the art will recognize that in order to show the capacity of a material, or formulations of a material, quantitatively as a thermal accelerant, the concept of permittivity can be employed in lieu of, or in addition to, evaluation of dipole moment. For example, materials can be tested using an electromagnetic wave of sinusoidal frequency ω, which is directed at a subject sample by an open-ended coaxial cable of a low-power oscillator. Measurement of the magnitude and phase of the fraction of the wave which is reflected allows deduction of the complex permittivity of the tissue.
# The complex permittivity is defined as ε*=ε′−jε″, where ε′ is the real permittivity and ε″ is the imaginary permittivity. […] The real permittivity is also known as the dielectric constant. The imaginary permittivity is also called the loss factor and can be written ε″=σ/(ωε0), so as to incorporate the electrical conductivity of the material, […]. The quantity a directly scales the power deposited per unit volume according to the following expression, ARD=σ|E|^2, where ARD is Absorption Rate Density (watt m^−3), […] is electrical conductivity (ohm^−1 m^−1), and JEJ is the magnitude of the electrical field (volt m^−1) produced by the microwave antenna at the point of interest in the tissue.
substance,measurement,setting,value
"albumin: serum albumin, globular blood protein, ca. 66-67 kDa; carrier polymer of the TA",coagulation (denaturation) temperature,[1]; pH 3.5,46 °C
same,coagulation (denaturation) temperature,[1]; pH 7.4,62 °C
same,Dielectric constant (ε′),[2]; 915 MHz,30.7
same,electrical conductivity (σ),[2]; 915 MHz,0.52 mho/m
same,Dielectric constant (ε′),[2]; 2450 MHz,37.9
same,electrical conductivity (σ),[2]; 2450 MHz,1.12

# From US12702478B2, “Devices, methods, and compositions for thermal acceleration and drug delivery” (Rhode Island Hospital, priority 2015, dated 2026)
